Literature values, collected in US4198507A.

Legend:
[1] = prior art; cited from earlier work
[2] = system: gastrointestinal tract; settings: compared with the parent xanthines; prior art; cited from earlier work
[3] = prior art; cited from earlier work; remark: listed apart in the source

| Substance | reaction in aqueous solutions or suspensions [1] | tolerance in the gastrointestinal tract [2] | water solubility (in words) [3] |
| --- | --- | --- | --- |
| theobromine calcium salicylate | alkaline reactions | better tolerated | – |
| theophylline calcium salicylate | – | – | insoluble |
